Results taken from PubChem BioAssay AID1948 (National Center for Advancing Translational Sciences (NCATS), 2009).
Among all 110,000 compounds or so, about 20 (0.02%) were called active. These results got no clear call from the source, so the numbers are uncertain. Calls follow the shape of the dose curve; as a rule, active = well fitted activation curve with a large enough effect; inconclusive = small, poorly fitted or top-dose-only effect; inactive = no such curve, though single readings can be large or run the other way.

Test: qHTS Assay for Compounds that Induce Erasure of Genomic Imprints
Details: mouse ES Peg3-LacZ reporter, beta-gal luminescence, 40 h
Potency is read from the fitted curve at half-maximal effect.

| Structure (SMILES) | Potency |
| --- | --- |
| C(Cc1nn[nH]n1)c1nn[nH]n1 | inconclusive: 1260 nM |
